The full list was thinned out, with hits kept by preference.
HCMV UL50-53 inh = inhibitors of HCMV UL50-UL53 interaction, biochemical, HTRF; normalized percent inhibition; AID 1918969, 2023; 0.15% of 190,000 active; HCMV UL50-UL53 nuclear egress complex (human cytomegalovirus); inhibition, % (no concentration beside the values); in the data active means inhibition above about 27%, passing the limit was not always enough
GIV-Gai inh = inhibitors of GIV peptide binding to Galpha-i3, primary screen, biochemical, fluorescence polarization, FITC-GIV GBA peptide, rat Galphai3 | Guanine nucleotide-binding protein G(i) subunit alpha-3 (Rattus norvegicus), P08753 | 90 min; hits give low values; scaled: aluminum fluoride 0%, vehicle 100% | percent of control (FP), % (test concentration not listed) | hit rate 0.42% among 210,000 | AID 1224905, 2016;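 active = replicate mean at 85% of control or lower, very high polarization wells dropped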;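 note: wells of about 15 µL received 100 nL stock; the first replicate is given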
GIV-Gai FP conf = inhibitors of GIV peptide binding to Galpha-i3, confirmation, biochemical, fluorescence polarization, FITC-GIV peptide, rat Galphai3; shares compounds with GIV-Gai inh; hits give low values; fluorescence polarization, mP at 100 µM; 38% of 580 active; AID 1259350, 2017;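 active means inhibition score of 15 or more, meaning 100 minus mean polarization as percent of control over three replicates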;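 further: lower mP means peptide displaced from Galphai3 so more inhibition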
GIV-Gai AS conf = inhibitors of GIV binding to Galpha-i3, confirmation, orthogonal assay for GIV-Galpha-i inhibitor project, biochemical, AlphaScreen, His-GIV, GST-Galphai3; shares compounds with GIV-Gai inh; purified proteins, 90 min; hits give low values; AlphaScreen counts at 100 µM; 39% of 580 active;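 active means inhibition score at or above a set limit, where the score is 100 minus the three-replicate mean percent of control signal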
Starred values were filed as active, the others as inactive.

Chains of the proteins cited; added tags and fusions are not shown.
Guanine nucleotide-binding protein G(i) subunit alpha-3 (Rattus norvegicus), P08753, UniProt P08753, whole entry, looked up: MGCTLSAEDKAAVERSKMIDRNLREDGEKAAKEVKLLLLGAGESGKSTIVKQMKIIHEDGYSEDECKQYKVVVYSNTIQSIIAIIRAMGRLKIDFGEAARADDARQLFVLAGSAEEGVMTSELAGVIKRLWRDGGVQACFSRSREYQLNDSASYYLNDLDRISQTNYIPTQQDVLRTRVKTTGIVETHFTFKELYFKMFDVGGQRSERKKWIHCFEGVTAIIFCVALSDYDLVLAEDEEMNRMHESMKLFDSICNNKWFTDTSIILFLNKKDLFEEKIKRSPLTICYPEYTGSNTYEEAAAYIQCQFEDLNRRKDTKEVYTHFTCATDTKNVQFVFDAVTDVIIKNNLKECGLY

How did COc1ccc(S(=O)(=O)N(CCO)C2CCCCC2)cc1 do in these assays?
HCMV UL50-53 inh: -6.9

What do the screens show for `Cc1cc(N=Cc2c(O)ccc3ccccc23)no1`?
HCMV UL50-53 inh: 103.2*; GIV-Gai inh: -9.8*; GIV-Gai FP conf: 12.7*; GIV-Gai AS conf: 20466*

How did Cn1c(/N=C/c2c(O)ccc3ccccc23)nc2ccc(Br)cc21 do in these assays?
HCMV UL50-53 inh: 19.6; GIV-Gai inh: 23.3*; GIV-Gai FP conf: 25.3*; GIV-Gai AS conf: 14331*

How did Cc1ccc(O)c(C=Nc2cc(C)on2)c1 do in these assays?
HCMV UL50-53 inh: -9.0; GIV-Gai inh: 98.0

How did CCc1ccc(N=Cc2c(O)ccc3ccccc23)cc1 do in these assays?
HCMV UL50-53 inh: -9.4

How did N#Cc1ccc(-c2c(N)oc(-c3cccs3)c2C#N)cc1 do in these assays?
HCMV UL50-53 inh: -2.5; GIV-Gai inh: 111.7

What do the screens show for `O=C(CN1C2=NCCCN2c2ccccc21)c1ccc(Cl)c(Cl)c1`?
GIV-Gai inh: 114.9

How did O=C(CN1C2=NCCCN2c2ccccc21)c1ccc(Cl)cc1 do in these assays?
GIV-Gai inh: 90.2; GIV-Gai FP conf: 68.3; GIV-Gai AS conf: 45914

How did O=C(CC1CCN(C(=O)c2ccc3oc(C4CC4)nc3c2)CC1)N1CCN(c2ccccn2)CC1 do in these assays?
GIV-Gai inh: 96.0

Results for CCN1CCN(C(=O)/C(C#N)=N/Nc2cccc3c(=O)[nH][nH]c(=O)c23)CC1 ?
HCMV UL50-53 inh: -48.3

What do the screens show for `O=c1oc(Nc2ccccc2)nc2ccccc12`?
HCMV UL50-53 inh: 3.8; GIV-Gai inh: 102.4

Results for CCOCCCNC(=O)Cn1cc2c(n1)-c1c(oc(C(=O)N3CCCC3)c1C)CC2 ?
GIV-Gai inh: 97.2

Results for COCCNC(=O)Cn1cc2c(n1)-c1c(oc(C(=O)N3CCCC3)c1C)CC2 ?
GIV-Gai inh: 69.8*; GIV-Gai FP conf: 65.5*; GIV-Gai AS conf: 26569

Results for CC(=O)Nc1ccc(NC(=O)c2oc3c(c2C)-c2nn(Cc4ccccc4Cl)cc2CC3)cc1 ?
HCMV UL50-53 inh: 0.0; GIV-Gai inh: 98.8

Results for Cc1cccc(CNC(=O)c2oc3c(c2C)-c2nn(Cc4cccc(Cl)c4)cc2CC3)c1 ?
HCMV UL50-53 inh: 7.8; GIV-Gai inh: 100.6

Results for CCn1cc2c(n1)-c1c(oc(C(=O)NCc3cccnc3)c1C)CC2 ?
GIV-Gai inh: 82.9*; GIV-Gai FP conf: 52.7; GIV-Gai AS conf: 10636*

Results for CCn1cc2c(n1)-c1c(oc(C(=O)Nc3ccc(Cl)cc3)c1C)CC2 ?
GIV-Gai inh: 81.5*; GIV-Gai FP conf: 54.3; GIV-Gai AS conf: 16212*

How did COc1cc(-c2cc(C#N)on2)ccc1OCc1ccccc1 do in these assays?
HCMV UL50-53 inh: -4.6

Results for Cc1cccc(N2CCN(S(=O)(=O)c3cc(-c4cc(C)no4)cs3)CC2C)c1 (configuration not stated) ?
GIV-Gai inh: 99.6

Results for O=C(O)C1=CC(=C(c2ccc(O)c(C(=O)O)c2)c2ccc(O)c(C(=O)O)c2)C=CC1=O ?
HCMV UL50-53 inh: 122.8*; GIV-Gai inh: -18.7*; GIV-Gai FP conf: 16.7*; GIV-Gai AS conf: 2586*

Compounds from the list above containing a thiophene ring, fused or not, in the order listed:
How did N#Cc1ccc(-c2c(N)oc(-c3cccs3)c2C#N)cc1 do in these assays?
HCMV UL50-53 inh: -2.5; GIV-Gai inh: 111.7

Results for Cc1cccc(N2CCN(S(=O)(=O)c3cc(-c4cc(C)no4)cs3)CC2C)c1 (configuration not stated) ?
GIV-Gai inh: 99.6

The list goes on.
What do the screens show for `Nc1ccc(O)c(C(=O)O)c1`?
HCMV UL50-53 inh: -68.0; GIV-Gai inh: 90.7

Results for Cc1cc(=O)oc2c(C(=O)c3ccccc3)c(OC(=O)C(C)C)ccc12 ?
GIV-Gai inh: 105.1

What do the screens show for `CC1(C)Cc2nc3sc4c(N5CCOCC5)ncnc4c3cc2CO1`?
HCMV UL50-53 inh: 9.0; GIV-Gai inh: 100.3

How did CC(NC(=O)CSc1nnnn1C)c1ccccc1 (configuration not stated) do in these assays?
HCMV UL50-53 inh: -3.2

How did Cn1nnnc1SCC(=O)NC1Cc2ccccc2C1 do in these assays?
HCMV UL50-53 inh: -11.9; GIV-Gai inh: 87.5; GIV-Gai FP conf: 69.4; GIV-Gai AS conf: 47713

Results for COc1cc(/C=C2\C(=O)N(c3ccc(Cl)c(C(=O)O)c3)N=C2C)ccc1OCc1ccccc1 ?
HCMV UL50-53 inh: 25.9; GIV-Gai inh: 109.1

How did COc1cc(/C=C2\C(=O)N(c3ccc(S(N)(=O)=O)cc3)N=C2C)cc(Br)c1OCc1ccccc1 do in these assays?
HCMV UL50-53 inh: 46.2*; GIV-Gai inh: 66.3*; GIV-Gai FP conf: 58.6; GIV-Gai AS conf: 27596*

How did O=C(COc1ccccc1F)Nc1cccnc1 do in these assays?
HCMV UL50-53 inh: -34.1

How did Cc1cc(OCC(O)CN2CCCCC2C)cc(C)c1Cl (configuration not stated) do in these assays?
HCMV UL50-53 inh: -6.3

What do the screens show for `Cc1ccc(SCc2cc(=O)n3c(nc4ccccc43)[nH]2)cc1`?
HCMV UL50-53 inh: 32.9; GIV-Gai inh: 101.8

Results for N#Cc1ccc(NC2=NS(=O)(=O)c3ccccc32)cc1 ?
HCMV UL50-53 inh: -2.0; GIV-Gai inh: 92.0; GIV-Gai FP conf: 77.2; GIV-Gai AS conf: 35009

Results for O=S1(=O)N=C(Nc2ccccc2)c2ccccc21 ?
HCMV UL50-53 inh: -22.5

What do the screens show for `O=C(O)c1ccc(C(=O)Nc2cccc(Cl)c2)c(C(=O)O)c1`?
HCMV UL50-53 inh: -39.7; GIV-Gai inh: 64.2*; GIV-Gai FP conf: 62.4*; GIV-Gai AS conf: 34772

Results for O=C(O)c1cccc(NC(=O)c2ccccc2C(=O)O)c1 ?
HCMV UL50-53 inh: -13.4; GIV-Gai inh: 99.7

What do the screens show for `Cc1ccccc1NC(=O)c1sc2nc(-c3cc4ccccc4oc3=O)[nH]c(=O)c2c1C`?
HCMV UL50-53 inh: 5.7; GIV-Gai inh: 70.9*; GIV-Gai FP conf: 38.1*; GIV-Gai AS conf: 23058

What do the screens show for `Cc1ccccc1NC(=O)c1cc2ccccc2o1`?
GIV-Gai inh: 100.0

What do the screens show for `CC(C)(C)C(=O)COC(=O)C1CCN(S(=O)(=O)c2cccs2)CC1`?
HCMV UL50-53 inh: -28.9

What do the screens show for `Cn1nc(CC(=O)Nc2nncs2)c2ccccc2c1=O`?
HCMV UL50-53 inh: -29.6; GIV-Gai inh: 98.7

How did Cc1cccc(C)c1NC(=O)C1(N(Cc2ccco2)C(=O)Cc2nc(N)n[nH]2)CCCCC1 do in these assays?
HCMV UL50-53 inh: -23.5

What do the screens show for `C=CCSc1nnc2c(n1)[nH]c1ccccc12`?
HCMV UL50-53 inh: -34.4; GIV-Gai inh: 102.6

How did C=CCNc1nc2c([nH]c3ccccc32)s1 do in these assays?
GIV-Gai inh: 87.4; GIV-Gai FP conf: 56.3*; GIV-Gai AS conf: 13174*

Results for Nc1nc2c([nH]c(=O)n2[C@@H]2O[C@H](CO)[C@@H](O)[C@H]2O)c(=O)[nH]1 ?
HCMV UL50-53 inh: 0.7

Results for [N-]=[N+]=c1c(=O)ccc2c(=O)c3ccccc3c(=O)c1=2 ?
HCMV UL50-53 inh: -128.1; GIV-Gai inh: 62.7*; GIV-Gai FP conf: 44.1*; GIV-Gai AS conf: 2044*

Results for N#CCCNCCN1CCOCC1 ?
HCMV UL50-53 inh: -14.6

Results for CC1CCN(C(=O)COc2ccc(F)cc2)CC1 ?
GIV-Gai inh: 99.6

What do the screens show for `CNC(=O)c1ccc(OCC(C)C)cc1`?
HCMV UL50-53 inh: -33.9; GIV-Gai inh: 104.2

Filtered by structure: the compounds so far containing two or more sulfur atoms
Results for Cc1cccc(N2CCN(S(=O)(=O)c3cc(-c4cc(C)no4)cs3)CC2C)c1 (configuration not stated) ?
GIV-Gai inh: 99.6

What do the screens show for `CC(C)(C)C(=O)COC(=O)C1CCN(S(=O)(=O)c2cccs2)CC1`?
HCMV UL50-53 inh: -28.9

High-throughput results as filed in PubChem.
